# Measurements taken from US8486697B2, “Inducing cell death by inhibiting adaptive heat shock response” (Incuron, LLC, priority 2008, dated 2013).
# System: HeLa cells
compound,measurement,setting,value
"CCN(CC)CCCC(C)Nc1c2ccc(Cl)cc2nc2ccc(OC)cc12 (centres unmarked) [QC, quinacrine]",cytotoxicity in combination with DMAG17 (FIG. 5),"6 h, DMAG17 1 μM with quinacrine 10 or 20 μM",synergistic cytotoxicity
same,cytotoxicity in combination with heat shock (FIG. 6),"heat shock 43° C., 30 min with QC",Synergistic cytotoxicity
